Consider 101 compounds from PubChem BioAssay AID504454 (NMMLSC, 2011).

By UniProt entry, the sequences of proteins in these tests, tags left out.
UniProt P07550, whole entry: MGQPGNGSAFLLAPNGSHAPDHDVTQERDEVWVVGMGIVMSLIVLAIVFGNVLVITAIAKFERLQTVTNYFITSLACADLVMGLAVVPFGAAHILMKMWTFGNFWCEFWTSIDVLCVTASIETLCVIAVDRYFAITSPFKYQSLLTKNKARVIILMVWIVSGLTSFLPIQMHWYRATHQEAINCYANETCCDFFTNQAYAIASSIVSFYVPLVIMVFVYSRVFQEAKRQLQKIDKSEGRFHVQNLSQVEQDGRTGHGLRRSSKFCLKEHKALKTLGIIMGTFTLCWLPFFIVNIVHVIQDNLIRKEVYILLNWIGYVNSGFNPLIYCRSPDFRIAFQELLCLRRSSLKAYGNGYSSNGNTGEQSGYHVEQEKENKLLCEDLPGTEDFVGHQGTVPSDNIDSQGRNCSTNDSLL

The entries are a selection whose mix differs from that of the whole data set. Calls of active or inactive are those of the source.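 Rule for the calls: active = response above a set limit, near 3 SD of response in nonfluorescent compounds (cut at about 42% in these data); inactive = the rest.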

For the assay, the target named is Beta-2 adrenergic receptor (Homo sapiens) (UniProt P07550). Description: agonist-induced loss of surface beta2AR – cell-based, FAP fluorogen, flow cytometry, primary screen (AID 504454). Conditions: Am2.2-beta2AR cells, FAP receptor internalization, active compounds read high, concentration not given here.
With `CN(C(=O)Cc1ccc(Cl)c(Cl)c1)[C@@H]1CCCC[C@H]1N1CCCC1`, the response is inactive: -9.17%.

In the case of `CC(C)/C=N\N=C(\N)N[N+](=O)[O-]`, the response was inactive: 1.08%.

Regarding `COc1ccccc1CNC(=O)COC(=O)C(O)(c1ccccc1)c1ccccc1`, the response was inactive: 7.62%.

As for `O=[N+]([O-])c1cc([N+](=O)[O-])c(-c2cnn(-c3ccccc3)c2)c([N+](=O)[O-])c1`, the response is inactive: -4.13%.

In the case of `Clc1n[nH]nc1-c1nn[nH][15n]1`, the response is inactive: 3.05%.

As to `CC(C)(C)C(=O)NC(Sc1ncccn1)C(Cl)(Cl)Cl` (stereo unspecified), the response was inactive: 2.16%.

In the case of `CCOP(=O)(Nc1ccc(C)cn1)OCC`, the response was inactive: 2.07%.

With `CCC1=CC2Cc3nc4ccc(Cl)cc4c(N)c3C(C1)C2` (stereo unspecified), the response was inactive: 17.9%.

Turning to `O=P1(Nc2ccccn2)COc2ccccc2OC1`, the response was inactive: 14.2%.

On to `O=[N+]([O-])c1cc([N+](=O)[O-])c(-n2nnc3ccccc32)c([N+](=O)[O-])c1`, for which the response was inactive: -0.11%.

As to `CCOP(=O)(NC(=NC(C)c1ccccc1)NC(C)c1ccccc1)OCC` (stereo unspecified), the response was inactive: 3.78%.

In the case of `CCOP(=O)(Nc1cccc2ccccc12)OCC`, the response is inactive: -5.98%.

For `Cc1ccc(C)c(NP(C)(=O)Oc2ccccc2)c1` (stereo unspecified), the response was inactive: -0.45%.

As for `CCCOP(=S)(Nc1nc(N)cc(=O)[nH]1)OCCC`, the response was inactive: -8.25%.

`Cc1cc(C)cc(OP(C)(=O)Nc2ccccn2)c1` (stereo unspecified): the response was inactive: 8.36%.

Regarding `CP(=O)(Nc1cccc(Br)c1)Oc1ccccc1` (stereo unspecified), the response was inactive: -4.26%.

With `Cc1ccc(NCCc2c([N+](=O)[O-])cc([N+](=O)[O-])cc2[N+](=O)[O-])cc1`, the response was inactive: 7.42%.

Regarding `Nc1cccc2c([As](=O)(O)O)cccc12`, the response was inactive: -6.36%.

Regarding `CCOC(=O)c1ccc(NP(C)(=O)Oc2cc(C)cc(C)c2)cc1` (stereo unspecified), the response was inactive: -27.4%.

For `Cc1cccc(OCC(=O)OC2CN3CCC2CC3)c1` (stereo unspecified), the response was inactive: -5.49%.

Turning to `O=[As](O)(c1cccc(O)c1)c1cccc(O)c1`, the response is inactive: -0.59%.

Turning to `Cc1cc(C)cc(OP(C)(=O)Nc2ccc(C)cc2C)c1` (stereo unspecified), the response was inactive: -1.86%.

Take `O=[As](O)(O)c1cccnc1`: the response is inactive: 3.28%.

`COc1cc(C(=O)NCC2(N3CCOCC3)CCCCC2)cc(Cl)c1OC(C)C`: the response is inactive: -1.41%.

For `COc1ccccc1OP(C)(=O)Nc1cccc(Br)c1` (stereo unspecified), the response was inactive: 18.5%.

Consider `CS(=O)(=O)c1ccc(Cl)c(NC(=O)COC(=O)C(O)(c2ccccc2)c2ccccc2)c1`, for which the response was inactive: 7.36%.

Turning to `O=C(OC1CN2CCC1CC2)c1ccc(Cl)cc1` (stereo unspecified), the response was inactive: 1.49%.

Turning to `O=[N+]([O-])c1ccc2c(c1)nnn2O`, the response was inactive: -6.17%.

As for `CC1=NCCc2c1[nH]c1ccccc21.O=[N+]([O-])c1cc([N+](=O)[O-])c(O)c([N+](=O)[O-])c1`, the response was active: 60%.

In the case of `CN(C(=O)Cc1ccc(Cl)c(Cl)c1)[C@H]1CC[C@@]2(CCCO2)C[C@@H]1N1CCCC1`, the response is inactive: -2.44%.

`N#CCCN(C(=O)COC(=O)C(O)(c1ccccc1)c1ccccc1)c1ccc(F)cc1`: the response was inactive: 2.76%.

On to `CCOP1(=S)c2c(C)nn(CCC#N)c2N=C(c2ccc(F)cc2)N1C` (stereo unspecified), for which the response is inactive: -1.7%.

With `CN(C(=O)Cc1ccccc1)[C@@H]1CC[C@]2(CCCO2)C[C@H]1N1CCCC1`, the response is inactive: 11%.

With `NC(=O)Nc1ccc([As](=O)(O)O)cc1`, the response was inactive: -4.11%.

`O=C(O)COc1ccc([As](=O)(O)O)cc1[N+](=O)[O-]`: the response is inactive: -7.56%.

Regarding `Nc1ccccc1[As](=O)(O)c1ccccc1`, the response is inactive: -2.14%.

For `CS(=O)(=O)c1cc([N+](=O)[O-])c2no[n+]([O-])c2c1`, the response is inactive: 4.73%.

As for `O=C(O)c1cccc(Nc2c([N+](=O)[O-])cc([N+](=O)[O-])cc2[N+](=O)[O-])c1`, the response was inactive: -2.08%.

As for `CCOP1(=S)c2c(C)nn(CCC#N)c2N=C(c2ccccc2F)N1C` (stereo unspecified), the response is inactive: -7.69%.

For the compound `O=P(Nc1nccs1)(Oc1ccccc1)Oc1ccccc1`, the response is inactive: 1.29%.

Turning to `O=P(Nc1nccs1)(c1ccccc1)c1nc2ccccc2s1` (stereo unspecified), the response was inactive: 7.75%.

Consider `Cc1cc(C)cc(OP(C)(N)=O)c1` (stereo unspecified), for which the response is inactive: -4%.

With `CC(C)NC(=O)NP(=O)(Oc1ccccc1)Oc1ccccc1`, the response was inactive: -2.83%.

For the compound `COc1ccccc1OP(C)(=O)Nc1cc(Cl)ccc1C` (stereo unspecified), the response was inactive: -1.69%.

As to `CCN(CC)C(=S)SC(NC=O)C(Cl)(Cl)Cl` (stereo unspecified), the response is inactive: 1.86%.

For `O=C(OC1CN2CCC1CC2)c1cccc2[nH]cnc12` (stereo unspecified), the response is inactive: 0.41%.

In the case of `COc1ccc(OP(C)(=O)Nc2cccc(F)c2)cc1` (stereo unspecified), the response was inactive: 9.37%.

Regarding `O=[N+]([O-])c1cc([N+](=O)[O-])c(-c2ccn[nH]2)s1`, the response was inactive: 10.2%.

Regarding `COc1ccccc1OP(C)(=O)Nc1ccc(C)cc1` (stereo unspecified), the response is inactive: 15.4%.

For `COC(=O)C1(C)COP(=O)(N2CCCCCC2)OC1` (stereo unspecified), the response was inactive: -1.37%.

As for `Cc1ccc(NP(C)(=O)Oc2ccccc2)c(C)c1` (stereo unspecified), the response is inactive: 1.04%.

Regarding `CC(C)c1ccc(OP(=O)(Nc2ccccn2)Oc2ccccc2F)cc1` (stereo unspecified), the response was inactive: 0.8%.

Regarding `CCOC(=O)c1ccc(NP(C)(=O)Oc2ccccc2)cc1` (stereo unspecified), the response is inactive: 0.14%.

Consider `ClCCSc1nnc(-c2cccnc2)o1`, for which the response was inactive: -1.11%.

Consider `O=[N+]([O-])c1ccc2c(c1)C=Nc1ccccc1O2`, for which the response is inactive: 20.1%.

In the case of `Cc1ccc2nc3c(c(C)c2c1)CC(C(Cl)Cl)S3` (stereo unspecified), the response is inactive: -8.4%.

For the compound `Cc1ccc(OP(=O)(Nc2ccc([N+](=O)[O-])cn2)Oc2ccc(C)cc2)cc1`, the response is inactive: 8.2%.

Regarding `CC(C)(C)c1ccc(OP(C)(=O)Nc2ccc(SC(F)(F)F)cc2)cc1` (stereo unspecified), the response was inactive: 2.42%.

For the compound `Cc1cccc(C)c1OP(C)(N)=O` (stereo unspecified), the response is inactive: 8.1%.

In the case of `O=[As](O)(c1ccc(O)cc1)c1ccccc1O`, the response was inactive: 14.6%.

On to `C[As](=O)(O)c1cccc(C(=O)O)c1`, for which the response is inactive: -17.9%.

As for `O=[N+]([O-])c1ccc(-c2cc([N+](=O)[O-])c(O)c([N+](=O)[O-])c2)cc1`, the response is inactive: 9.17%.

With `COc1cc(C(=O)NCC2(N3CCOCC3)CCCCC2)ccc1OCC(C)C`, the response was inactive: -13.4%.

With `O=[N+]([O-])c1cc([N+](=O)[O-])c(Nc2cccnc2)c([N+](=O)[O-])c1`, the response is inactive: -0.87%.

For the compound `COc1ccc(N/C(=N/P(=O)(N2CCOCC2)N2CCOCC2)N2CCOCC2)cc1`, the response is inactive: -0.17%.

On to `O=[N+]([O-])c1cc(Oc2ccc([N+](=O)[O-])cc2C(F)(F)F)cc([N+](=O)[O-])c1`, for which the response is inactive: -4.46%.

On to `COc1ccc2nc(NP(=O)(c3ccccc3)c3ccccc3)sc2c1`, for which the response is inactive: -2.36%.

With `COc1cc(I)ccc1[As](=O)(O)O`, the response is inactive: -0.06%.

`O=P1(N(CCCl)CCCl)OCCCN1CCCl` (stereo unspecified): the response was inactive: -7.42%.

Regarding `O=P1(N(CCCl)CCCl)Nc2ccccc2N1`, the response is inactive: 0.42%.

With `O=C(OC1CN2CCC1CC2)C12CC3CC(CC(C3)C1)C2` (stereo unspecified), the response is inactive: -22.1%.

Regarding `Cc1cc(=O)[nH]c(N[N+](=O)[O-])n1`, the response was inactive: 2.49%.

For `CCN(CC)CCCOC(=O)C(O)(c1ccccc1)c1ccccc1`, the response was inactive: 17.2%.

In the case of `Cc1c2c(nc3ccccc13)SC(C(Cl)Cl)C2` (stereo unspecified), the response was inactive: -2.63%.

With `CP(=O)(Nc1ccccn1)Oc1ccc(Cl)cc1` (stereo unspecified), the response is inactive: -1.64%.

As for `CCC(C)N(CC(C)C)C(=S)SC(NC(C)=O)C(Cl)(Cl)Cl` (stereo unspecified), the response is inactive: 0.73%.

Regarding `O=[N+]([O-])c1cc([N+](=O)[O-])c(O)c([N+](=O)[O-])c1.c1ccc(Oc2ccncc2)cc1`, the response was inactive: -22.3%.

Regarding `CCOC(=O)c1ccc(NC(=O)C(C)(CCl)SC)cc1` (stereo unspecified), the response was inactive: 1.01%.

Take `CCOC(=O)c1ccc(NP(C)(=O)Oc2ccc(OC)cc2)cc1` (stereo unspecified): the response is inactive: -8.77%.

`CCOP(C)(=S)SCC(=O)NC(C)C(=O)O` (stereo unspecified): the response is inactive: -1.49%.

Regarding `O=C(OC1CN2CCC1CC2)c1cccc([N+](=O)[O-])c1` (stereo unspecified), the response was inactive: 3.67%.

For `CP(=O)(NC(=O)Nc1ccccc1)Oc1ccccc1` (stereo unspecified), the response is inactive: 9.91%.

Turning to `O=C(COc1ccccc1)OC1CN2CCC1CC2` (stereo unspecified), the response was inactive: 16.8%.

As for `CCc1ccc(OP(C)(=O)N2CCN(c3ccc([N+](=O)[O-])cc3)CC2)cc1` (stereo unspecified), the response was inactive: 6.61%.

Consider `Cc1cc(C)cc(OP(C)(=O)Nc2ccc(SC(F)(F)F)cc2)c1` (stereo unspecified), for which the response is inactive: 13.2%.

Take `O=C(Nc1ccncc1[N+](=O)[O-])c1ccc([N+](=O)[O-])cc1[N+](=O)[O-]`: the response is inactive: 18.5%.

For the compound `COP1(=S)c2c(C)nn(CCC#N)c2N=C(c2ccc(F)cc2)N1C` (stereo unspecified), the response is inactive: -4.15%.

For `CP(=O)(Nc1ccc(SC(F)(F)F)cc1)Oc1ccc(Cl)cc1` (stereo unspecified), the response is inactive: 1.35%.

For `Cc1cccc(C)c1OP(C)(=O)Nc1ccc(SC(F)(F)F)cc1` (stereo unspecified), the response is inactive: 5.13%.

For `CP(=O)(Oc1ccccc1)OC(c1ccccc1)C(F)(F)F` (stereo unspecified), the response was inactive: -1.53%.

Regarding `CP(=O)(Nc1ccccc1Br)Oc1ccccc1` (stereo unspecified), the response was inactive: -6.47%.

Take `O=[N+]([O-])c1ccc(Nc2ccc(Oc3ccc([N+](=O)[O-])cc3[N+](=O)[O-])cc2)c([N+](=O)[O-])c1`: the response was inactive: -2.76%.

In the case of `Cc1cc(SC(NC=O)C(Cl)(Cl)Cl)ncn1` (stereo unspecified), the response is inactive: 2.68%.

For `O=P(Nc1ccccn1)(c1cccc2ccccc12)c1cccc2ccccc12`, the response was inactive: 1.24%.

With `COc1ccccc1OP(C)(=O)Nc1ccccc1` (stereo unspecified), the response is inactive: 1.06%.

Turning to `CCOC(=O)Nc1cccc([As](=O)(O)O)c1`, the response was inactive: -4.95%.

In the case of `CP(=S)(Nn1cnnc1)Oc1ccccc1` (stereo unspecified), the response was inactive: 5.06%.

Regarding `CCCCOc1ccc(C(=O)NCC2(N3CCCCC3)CCCCC2)cc1OC`, the response is inactive: -3.85%.

As for `Cc1cc(SC(NC(=O)c2ccccc2)C(Cl)(Cl)Cl)nc(C(C)C)n1` (stereo unspecified), the response was inactive: 9.94%.

Turning to `CC1CCNP(=O)(N(CCCl)CCCl)O1` (stereo unspecified), the response was inactive: -10.8%.

In the case of `CCOC(=O)Nc1ccc([As](=O)(O)O)c(O)c1`, the response was inactive: -4.19%.
